Measured values as given in US10457677B2 (priority 2015, dated 2019).

Chains of the proteins cited; added tags and fusions are not shown. Lines headed by an entry give the natural chain unless they say otherwise; changes in a name come on top.
UniProt P42336, whole entry: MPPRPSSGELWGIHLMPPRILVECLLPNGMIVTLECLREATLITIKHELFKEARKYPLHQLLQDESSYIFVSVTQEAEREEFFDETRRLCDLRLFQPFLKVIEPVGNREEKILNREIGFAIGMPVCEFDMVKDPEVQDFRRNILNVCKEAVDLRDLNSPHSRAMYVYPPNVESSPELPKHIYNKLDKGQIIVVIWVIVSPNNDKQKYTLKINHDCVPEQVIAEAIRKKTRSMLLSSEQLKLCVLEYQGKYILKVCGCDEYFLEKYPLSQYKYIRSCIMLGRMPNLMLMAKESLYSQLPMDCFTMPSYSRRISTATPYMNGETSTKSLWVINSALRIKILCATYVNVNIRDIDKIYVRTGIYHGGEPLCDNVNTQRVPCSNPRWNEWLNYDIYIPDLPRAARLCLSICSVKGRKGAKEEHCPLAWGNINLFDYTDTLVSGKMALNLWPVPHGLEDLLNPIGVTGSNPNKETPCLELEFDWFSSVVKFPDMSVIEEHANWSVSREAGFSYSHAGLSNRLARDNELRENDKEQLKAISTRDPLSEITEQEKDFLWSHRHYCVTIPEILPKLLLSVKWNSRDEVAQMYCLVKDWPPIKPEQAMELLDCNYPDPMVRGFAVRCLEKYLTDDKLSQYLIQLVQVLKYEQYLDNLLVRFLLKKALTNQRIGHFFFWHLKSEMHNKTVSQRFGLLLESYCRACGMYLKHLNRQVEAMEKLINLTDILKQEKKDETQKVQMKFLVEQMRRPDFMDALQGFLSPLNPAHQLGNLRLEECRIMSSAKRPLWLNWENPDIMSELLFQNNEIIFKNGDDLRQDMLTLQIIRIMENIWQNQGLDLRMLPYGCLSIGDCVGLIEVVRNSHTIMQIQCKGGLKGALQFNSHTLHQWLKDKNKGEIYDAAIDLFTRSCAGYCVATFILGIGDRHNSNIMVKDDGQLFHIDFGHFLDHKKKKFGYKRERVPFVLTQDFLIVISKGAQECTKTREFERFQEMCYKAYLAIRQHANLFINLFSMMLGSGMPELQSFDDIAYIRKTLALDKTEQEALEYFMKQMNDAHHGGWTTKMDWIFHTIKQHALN
UniProt O00329: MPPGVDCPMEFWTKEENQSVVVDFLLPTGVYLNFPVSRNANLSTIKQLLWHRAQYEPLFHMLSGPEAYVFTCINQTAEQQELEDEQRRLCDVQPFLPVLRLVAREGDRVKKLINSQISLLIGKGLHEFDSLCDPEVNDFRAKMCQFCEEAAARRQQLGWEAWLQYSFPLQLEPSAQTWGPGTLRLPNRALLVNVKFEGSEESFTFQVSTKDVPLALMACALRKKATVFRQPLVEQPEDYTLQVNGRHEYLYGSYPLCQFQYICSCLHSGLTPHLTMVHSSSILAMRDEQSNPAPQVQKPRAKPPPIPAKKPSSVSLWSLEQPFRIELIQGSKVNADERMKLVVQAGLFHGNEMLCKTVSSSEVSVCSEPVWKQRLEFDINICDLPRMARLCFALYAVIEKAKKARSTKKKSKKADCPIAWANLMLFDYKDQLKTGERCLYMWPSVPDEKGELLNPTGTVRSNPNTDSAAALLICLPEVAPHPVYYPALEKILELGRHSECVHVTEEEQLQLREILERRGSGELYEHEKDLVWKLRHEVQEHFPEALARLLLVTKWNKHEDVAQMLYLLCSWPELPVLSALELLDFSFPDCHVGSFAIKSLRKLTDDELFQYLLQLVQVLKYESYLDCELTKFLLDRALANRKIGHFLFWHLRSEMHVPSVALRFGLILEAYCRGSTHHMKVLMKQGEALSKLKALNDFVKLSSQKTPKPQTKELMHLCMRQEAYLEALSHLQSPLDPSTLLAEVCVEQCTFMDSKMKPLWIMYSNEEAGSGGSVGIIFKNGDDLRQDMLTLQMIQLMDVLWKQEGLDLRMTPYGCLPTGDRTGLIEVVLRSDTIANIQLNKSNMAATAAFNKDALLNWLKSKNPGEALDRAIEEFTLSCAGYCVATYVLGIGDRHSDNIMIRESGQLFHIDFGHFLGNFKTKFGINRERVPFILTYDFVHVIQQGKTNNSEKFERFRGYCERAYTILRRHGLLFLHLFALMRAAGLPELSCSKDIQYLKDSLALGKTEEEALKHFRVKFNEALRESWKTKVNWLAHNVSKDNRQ
UniProt P48736: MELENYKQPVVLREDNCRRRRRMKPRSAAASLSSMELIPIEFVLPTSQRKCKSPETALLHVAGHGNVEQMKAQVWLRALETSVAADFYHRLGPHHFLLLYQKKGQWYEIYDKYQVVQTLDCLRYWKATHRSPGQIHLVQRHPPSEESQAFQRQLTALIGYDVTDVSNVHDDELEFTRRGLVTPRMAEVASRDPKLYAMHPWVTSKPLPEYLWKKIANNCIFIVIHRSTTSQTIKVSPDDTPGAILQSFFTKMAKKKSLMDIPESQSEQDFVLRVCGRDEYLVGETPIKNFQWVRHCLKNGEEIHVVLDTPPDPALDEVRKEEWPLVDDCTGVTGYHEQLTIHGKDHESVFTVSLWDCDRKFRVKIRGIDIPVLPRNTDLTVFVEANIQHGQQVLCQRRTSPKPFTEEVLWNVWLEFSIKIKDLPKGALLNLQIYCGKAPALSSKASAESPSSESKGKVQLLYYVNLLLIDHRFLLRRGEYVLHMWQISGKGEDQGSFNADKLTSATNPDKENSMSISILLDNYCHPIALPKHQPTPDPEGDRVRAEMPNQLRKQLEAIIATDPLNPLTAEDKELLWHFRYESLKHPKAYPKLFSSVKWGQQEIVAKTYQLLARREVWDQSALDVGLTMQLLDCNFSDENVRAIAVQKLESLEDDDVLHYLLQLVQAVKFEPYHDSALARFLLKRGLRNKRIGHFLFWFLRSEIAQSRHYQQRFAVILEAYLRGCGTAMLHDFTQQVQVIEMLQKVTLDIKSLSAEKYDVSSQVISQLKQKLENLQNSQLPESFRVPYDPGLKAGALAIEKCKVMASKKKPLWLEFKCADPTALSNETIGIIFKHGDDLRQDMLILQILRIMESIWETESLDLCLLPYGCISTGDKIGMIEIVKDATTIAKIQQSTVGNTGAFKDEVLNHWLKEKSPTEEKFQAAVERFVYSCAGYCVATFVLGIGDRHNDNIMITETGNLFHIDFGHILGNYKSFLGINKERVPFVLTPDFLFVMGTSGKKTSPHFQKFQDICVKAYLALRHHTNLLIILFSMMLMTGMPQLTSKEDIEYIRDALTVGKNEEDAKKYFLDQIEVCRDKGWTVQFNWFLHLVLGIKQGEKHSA

Tests used:
Type in all cases: biochemical
Settings in all cases: as printed:
PI3K p110α/p85α (human) = PI3K p110α/p85α (human) (Homo sapiens (Human), UniProt P42336); experiment: PI3K p110α/p85α (human), non-radioactive assay (HTRF)
Description: PI3K p110α/p85α (Human), Non-radioactive Assay
(§1) PI3K p110α/p85α (human) was incubated in an assay buffer comprising 10 μM phosphati-dylinositol 4,5-bisphosphate and MgATP (concentration as necessary). The reaction was initiated by addition of MgATP solution. After incubation at room temperature for 40 minutes, the reaction was stopped by addition of a solution consisting of EDTA and biotinylated phosphatidylinositol 3,4,5-trisphosphate. Finally, the detection buffer, consisting of a europium-labelled anti-GST monoclonal antibody, a GST-labelled GRP1 PH domain and streptavidin allophycocyanin, was added. The plate was read out via homogeneous time-resolved fluorescence (HTRF) and the corresponding signals were evaluated via the formula HTRF=10000×(Em665nm/Em620nm).

PI3K p110δ/p85α (human) = PI3K p110δ/p85α (human) (Homo sapiens (Human), UniProt O00329); experiment: PI3K p110δ/p85α (human), non-radioactive assay (HTRF)
Description: PI3K p110δ/p85α (Human), Non-radioactive Assay
as §1, with “p110δ/p85α” for “p110α/p85α”, “After an” for “After”, “incubation time of 30 min” for “incubation”, “temperature,” for “temperature for 40 minutes,”

PI3K (p120γ) (human) = PI3K (p120γ) (human) (Homo sapiens (Human), UniProt P48736); experiment: PI3K (p120γ) (human), non-radioactive assay (HTRF)
Description: PI3K (p120γ) (Human), Non-radioactive Assay
as §1, with “(p120γ)” for “p110α/p85α”, “After an” for “After”, “incubation time of 30 min” for “incubation”, “temperature,” for “temperature for 40 minutes,”, “HTRF=10000×(Em665nm/Em620nm). • MgATP=magnesium 5′-O—[hydroxy({[(hydroxyphosphinato)oxy]phosphinato}oxy)phosphoryl]adenosine • MgCl2=magnesium dichloride • EGTA=ethylene glycol bis(aminoethyl ether) N,N,N′,N′-tetraacetic acid • Tween 20=polysorbate 20 Medicament/pharmaceutical Composition” for “HTRF=10000×(Em665nm/Em620nm).”

COc1cnc(-n2c(=O)n(C)c3cnc4cc(OC)c(-c5cnn(C)c5)cc4c32)c(F)c1 [compound 105, 1-(3-Fluoro-5-methoxy-pyridin-2-yl)-7-methoxy-3-methyl-8-(1-methyl-1H-pyrazol-4-yl)-1,3-dihydro-imidazo[4,5-c]quinolin-2-one]
at least 2000 times: ratio IC50 (ATM) vs PI3Kalpha, selectivity with respect to PI3Kalpha (PI3K p110α/p85α (human)) | ratio IC50 (ATM) vs PI3Kdelta, selectivity with respect to PI3Kdelta (PI3K p110δ/p85α (human)) | ratio IC50 (ATM) vs PI3Kgamma, selectivity with respect to PI3Kgamma (PI3K (p120γ) (human))

[2H]C([2H])([2H])Oc1cnc(-n2c(=O)n(C)c3cnc4cc(OC)c(-c5cnn(C)c5)cc4c32)c(F)c1 [compound 155, 1-[3-Fluoro-5-(trideuterio-methoxy)-2-pyridyl]-7-methoxy-3-methyl-8-(1-methylpyrazol-4-yl) imidazo-[4,5-c]quinolin-2-one]
at least 2000 times: ratio IC50 (ATM) vs PI3Kalpha, selectivity with respect to PI3Kalpha (PI3K p110α/p85α (human)) | ratio IC50 (ATM) vs PI3Kdelta, selectivity with respect to PI3Kdelta (PI3K p110δ/p85α (human)) | ratio IC50 (ATM) vs PI3Kgamma, selectivity with respect to PI3Kgamma (PI3K (p120γ) (human))
